The test system of this data set is peripheral blood cells. Particulars: for absolute RBCs / absolute neutrophils / absolute platelet: mouse, in vivo.
Setting [1] is: mice, oral 12 mg/kg on day −2, 48 hours.
The mark [2] stands for this setting: mice, oral 17-18 mg/kg on day −2, 48 hours.

The values below come from patent US11446314B2, “Immunoablative therapies” (AVM Biotechnology LLC, priority 2018, dated 2022).

SMILES strings stand for the structures. Where two headings read alike, the source gives them in different places.

Regarding `C[C@@H]1C[C@H]2[C@@H]3CCC4=CC(=O)C=C[C@]4(C)[C@@]3(F)[C@@H](O)C[C@]2(C)[C@@]1(O)C(=O)CO` [dexamethasone], the “absolute RBCs” value came to 10 relative counts, the absolute neutrophils was 605 relative counts and the absolute platelet is on record as 373 relative counts. In addition, under setting [1], the B lymphocytes is listed as 111 relative counts, the “CD3+ lymphocytes” value was found to be 92 relative counts, the “CD4+ lymphocytes” value was determined as 37 relative counts and the “CD8+ lymphocytes” value came out at 33 relative counts. For the same molecule, under setting [1], the Tregs is 0.2 relative counts and the absolute lymphocytes is 521 relative counts. Besides, under setting [2], the B lymphocytes was 58 relative counts, the “CD3+ lymphocytes” value was 71 relative counts, the “CD4+ lymphocytes” value is 25 relative counts and the “CD8+ lymphocytes” value came out at 1.4 relative counts. Under setting [2], this molecule returned a Tregs of 0.5 relative counts and an absolute lymphocytes of 88 relative counts. Besides, for the setting “mice, dexamethasone 12 or 17.5 mg/kg HED 12-72 hours before blood draw, combination with 12 mg/kg HED on day −2”, the “lymphodepletion profile compared to standard 2 day Cy with 4 day Flu” value was “comparable lymphodepletion profile”. Moreover, where the note is “po, 12 mg/kg”, the “absolute RBCs” value came to 10 relative counts, the absolute neutrophils stood at 321 relative counts and the absolute platelet was found to be 348 relative counts.
